Measured values from US8058243B2, “Method for treating a brain cancer with ifenprodil” (HSC Research and Development Limited Partnership, priority 2006, dated 2011).
Structures can show the parent of a compound that is named as a salt. Where two headings read alike, the source gives them in different places.

Tested on: murine neural precursor cells (neurosphere cultures)
Assay: HTS of LOPAC library against secondary neurosphere cultures, MTT proliferation assay at 3 μM, day 7 (z score, P value)

Molecule | Activity | Z score | Z score (LOPAC primary screen, neurosphere MTT proliferation, 3 μM, day 7)
O=C(O)C1CCCNC1 (racemic) [(±)-Nipecotic acid] | no | – | –
O=C(O)c1cc2cc(F)ccc2[nH]1 [5-Fluoroindole-2-carboxylic acid] | no | – | –
CC(=O)[C@H]1CC[C@H]2[C@@H]3CC[C@H]4C[C@H](O)CC[C@]4(C)[C@H]3C(=O)C[C@]12C [5alpha-Pregnan-3alpha-ol-11,20-dione] | no | – | –
N=C(N)SCCc1cnc[nH]1 [Imetit dihydrobromide] | no | – | –
CNCCC(Oc1ccccc1OC)c1ccccc1 (stereo not drawn) [Nisoxetine hydrochloride] | no | – | –
Nc1nc2ccc(OC(F)(F)F)cc2s1 [Riluzole] | no | – | –
(−)-Quinpirole hydrochloride | no | – | –
(−)-Scopolamine methyl nitrate | – | −0.4508 | −0.451
